Reference: patent US10058100B2, “Hydrogen sulfide releasing compounds and their use” (THE UNIVERSITY OF EXETER, priority 2011, dated 2018)

Tested on: Human brain microvascular endothelial cells (HMEC)
Test: Prevention of cell death induced by oxidants (SIN-1, H2O2, 4-HNE), Alamar Blue
Format: cell-based

morpholin-4-ium 4-methoxyphenyl(morpholino) phosphinodithioate
cell death induced by 4-HNE (4-HNE 10 μM, GYY4137 100 μM and 500 μM, FIG. 11): significantly inhibited
SIN-1 and 4-HNE induced cell death (HCMEC/D3 cells, GYY4137 500 μM, FIG. 4, p<0.001): significantly inhibited
cell death induced by SIN-1 (SIN-1 500 μM, GYY4137 100 μM and 500 μM, FIG. 9): significantly inhibited
concentration mediating inhibition of cell death, mitochondrial dysfunction and oxidative stress (cells challenged with physiological oxidant species): 100 to 500 µM
